Values of other authors as cited in article PMC6691393.

By UniProt entry, the sequences of proteins in these tests, tags left out. Residues count along the entry.
UniProt P98170, 262-333: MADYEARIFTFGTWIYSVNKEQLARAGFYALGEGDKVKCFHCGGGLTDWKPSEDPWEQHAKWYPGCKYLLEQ
UniProt Q9NR28, whole entry, looked up, tested part not stated: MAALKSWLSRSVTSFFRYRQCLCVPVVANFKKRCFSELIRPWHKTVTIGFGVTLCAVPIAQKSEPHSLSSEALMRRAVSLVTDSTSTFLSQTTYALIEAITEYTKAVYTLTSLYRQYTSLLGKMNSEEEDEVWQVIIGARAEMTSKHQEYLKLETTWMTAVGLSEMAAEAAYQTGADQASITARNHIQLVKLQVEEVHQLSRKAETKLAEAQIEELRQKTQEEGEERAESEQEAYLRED

Biological target: XIAP BIR3 (Homo sapiens) (UniProt P98170)

SMAC/Diablo N-terminal peptide (from UniProt Q9NR28)
Kd: 244 nM
